Literature values in patent US20050192221A1, “Methods and compositions related to plunc polypeptides” (priority 2003, published 2005).
Where two headings read alike, the source gives them in different places.

Experiments:
Bordetella parapertussis = tested on: Bordetella parapertussis; parameters: unit not given beside the values; conditions: cited from earlier work
[1] = tested on: Staphylococcus coagulase f; parameters: MIC90: unit not given beside the values; conditions: cited from earlier work
[2] = Staphylococcus coagulase f (non β-lactamase producer)
[3] = Staphylococcus coagulase f (β-lactamase producer)

**Q.** With `CC[C@H]1OC(=O)[C@H](C)[C@@H](O[C@H]2C[C@@](C)(OC)[C@@H](O)[C@H](C)O2)[C@H](C)[C@@H](O[C@@H]2O[C@H](C)C[C@H](N(C)C)[C@H]2O)[C@](C)(O)C[C@@H](C)C(=O)[C@H](C)[C@@H](O)[C@]1(C)O` [ERYTHROMYCIN, erythromycin] as the compound, how does the MIC90 (Bordetella parapertussis) read?
**A.** 0.25

**Q.** What about the MIC90 [1, 2] of the same compound?
**A.** 0.25

**Q.** And the “Range (of MIC)” value [1, 2]?
**A.** 0.03-8

**Q.** And the MIC90 [1, 3]?
**A.** 4

**Q.** What about the “Range (of MIC)” value [1, 3] of the same compound?
**A.** 0.06-16
